Measurements as given in EP4790062A1, “PHAGE PARTICLE COMPLEX, PREPARATION METHOD THEREFOR, AND USE THEREOF” (Pingshan Translational Medicine Center, Shenzhen Bay …, priority 2023, dated 2025).

Molecular target: T1, PLpro protein (Severe acute respiratory syndrome coronavirus 2, UniProt P0DTD1)
T1 construct: mixed with PLpro protein (0.1µM) in experimental buffer; His tag; made in house
Experiment: biochemical
Set-up: species or system SARS CoV-2

CC(=O)NCC(=O)N[C@H]1CC[S+](C)Cc2cc3cc(c2)C[S+](C)CC[C@H](NC(=O)[C@H](CCC(=O)O)NC(=O)[C@H](Cc2c[nH]c4ccccc24)NC(=O)[C@H](CC(N)=O)NC(=O)[C@H](CCC(N)=O)NC(=O)[C@H](CCCNC(=N)N)NC(=O)[C@H](C(C)C)NC1=O)C(=O)N[C@@H](CCC(N)=O)C(=O)N[C@@H](CO)C(=O)N[C@@H](CO)C(=O)N[C@@H](Cc1c[nH]cn1)C(=O)N[C@@H](CC(N)=O)C(=O)N[C@@H](CCCNC(=N)N)C(=O)N[C@H](C(N)=O)CC[S+](C)C3 (stereo partly shown) [Peptide W6]
IC50: 7.06 µM
